Literature values in US20250049842A1, “THERAPEUTIC BLOOD-ACID-SHIFTING COMPOSITIONS AND METHODS” (priority 2023, published 2025).

Settings: step (1) HA/A−

Hydroiodic Acid
pKa (pKa1, first or only dissociation): < 1
